Measured values: article PMC9604311, “Synthesis, Biological Activity and Molecular Docking of Chimeric Peptides Targeting Opioid and NOP Receptors” (International Journal of Molecular Sciences, 2022)

By UniProt entry, the sequences of proteins in these tests, tags left out. Where a name states a change or a piece, a line headed by the entry shows the natural chain unless it says otherwise.
UniProt P41143, whole entry: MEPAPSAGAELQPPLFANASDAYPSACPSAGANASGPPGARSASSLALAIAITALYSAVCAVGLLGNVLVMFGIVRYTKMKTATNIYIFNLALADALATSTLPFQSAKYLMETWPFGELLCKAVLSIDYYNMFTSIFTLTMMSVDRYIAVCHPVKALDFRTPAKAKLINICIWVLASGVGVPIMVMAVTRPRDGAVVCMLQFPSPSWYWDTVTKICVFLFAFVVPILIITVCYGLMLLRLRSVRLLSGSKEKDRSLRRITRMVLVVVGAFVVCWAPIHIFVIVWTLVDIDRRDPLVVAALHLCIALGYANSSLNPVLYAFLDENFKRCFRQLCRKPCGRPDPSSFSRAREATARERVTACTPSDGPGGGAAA
UniProt P41145: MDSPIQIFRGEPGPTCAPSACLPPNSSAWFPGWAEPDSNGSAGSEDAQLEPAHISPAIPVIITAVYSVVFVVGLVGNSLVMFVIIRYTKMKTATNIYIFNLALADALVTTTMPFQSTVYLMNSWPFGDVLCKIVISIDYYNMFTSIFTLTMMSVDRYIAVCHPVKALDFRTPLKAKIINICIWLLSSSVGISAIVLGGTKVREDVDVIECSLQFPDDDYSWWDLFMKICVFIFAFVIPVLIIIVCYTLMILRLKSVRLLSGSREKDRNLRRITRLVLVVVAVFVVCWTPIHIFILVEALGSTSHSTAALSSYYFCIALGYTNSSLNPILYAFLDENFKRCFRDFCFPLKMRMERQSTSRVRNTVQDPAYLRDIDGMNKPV

What was measured:
[1] = target: human DOP (Homo sapiens, UniProt P41143); format: cell-based; set-up: expressed in transfected cells; host or cells: CHO cells; settings: inactive = inactive up to 1 μM
[2] = target: T1, human KOP (Homo sapiens, UniProt P41145); format: cell-based; settings: inactive = inactive up to 1 μM
T1 construct: expressed in transfected cells; host or cells: CHO cells

[3] = agonist potency, calcium mobilization

CC(C)C[C@H](NC(=O)[C@H](CCCCN)NC(=O)[C@H](CCCNC(=N)N)NC(=O)[C@H](C)NC(=O)[C@H](CO)NC(=O)[C@H](CCCCN)NC(=O)[C@H](CCCNC(=N)N)NC(=O)[C@H](C)NC(=O)CNC(=O)[C@@H](NC(=O)[C@H](Cc1ccccc1)NC(=O)CNC(=O)CNC(=O)[C@@H](N)Cc1ccccc1)[C@@H](C)O)C(=O)N[C@@H](C)C(=O)N[C@@H](CC(N)=O)C(=O)N[C@@H](CCC(N)=O)C(=O)O [N/OFQ]
inactive: DOP pEC50 (CL95%) [1, 3] | DOP α ± SEM ([1]; efficacy (intrinsic activity) relative to DPDPE) | KOP pEC50 (CL95%) [2, 3] | KOP α ± SEM ([2]; efficacy (intrinsic activity) relative to dynorphin A)
